Results taken from US20260256963A1, “Combined Therapy with Nanoparticles and Radiopharmaceuticals” (Université de Montpellier, priority 2022, published 2026).

What was measured:
[1] = Maximum tolerated activity in nude mice; type: in vivo
[2] = test system: SK-OV-3-luc tumor cell xenografts; assay: Kaplan-Meier survival of mice bearing intraperitoneal SK-OV-3-luc xenografts; type: in vivo; conditions: from xenograft date to bioluminescence of 4×10^10 photons/s; 5 MBq and/or AGuiX® 2×5 mg per day at 24 h and 72 h
[3] = IP injection, radioactivity in the tumor

## ^177Lu-Trastuzumab: Trastuzumab (Herceptin, Roche) conjugated with p-SCN-benzyl-DOTA, labeled with ^177Lu at specific activity 200 MBq/mg
[1]
  Maximum Tolerated Activity (MTA): 10 MBq
[2]
  Median survival: 69 days
[3]
  Incorporation of the radiolabeled antibody in the tumor over time: increases between 0 and 48 h and then decreases
